Usually pKi stands for the negative decadic logarithm of the Ki, by convention in mol/L.

Protein sequences, listed by entry. Tags and fused reporters are not part of them.
UniProt P33535, whole entry: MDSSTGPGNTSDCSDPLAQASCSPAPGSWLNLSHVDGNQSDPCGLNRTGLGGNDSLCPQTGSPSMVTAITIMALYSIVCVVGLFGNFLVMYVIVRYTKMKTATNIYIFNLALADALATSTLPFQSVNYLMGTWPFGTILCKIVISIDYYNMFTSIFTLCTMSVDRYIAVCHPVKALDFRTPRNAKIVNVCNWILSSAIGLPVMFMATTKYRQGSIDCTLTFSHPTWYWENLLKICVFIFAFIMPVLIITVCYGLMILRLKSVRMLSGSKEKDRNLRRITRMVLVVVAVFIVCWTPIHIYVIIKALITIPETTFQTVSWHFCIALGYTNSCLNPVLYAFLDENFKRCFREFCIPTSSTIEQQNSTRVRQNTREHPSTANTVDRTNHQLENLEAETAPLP
UniProt P42866, whole entry: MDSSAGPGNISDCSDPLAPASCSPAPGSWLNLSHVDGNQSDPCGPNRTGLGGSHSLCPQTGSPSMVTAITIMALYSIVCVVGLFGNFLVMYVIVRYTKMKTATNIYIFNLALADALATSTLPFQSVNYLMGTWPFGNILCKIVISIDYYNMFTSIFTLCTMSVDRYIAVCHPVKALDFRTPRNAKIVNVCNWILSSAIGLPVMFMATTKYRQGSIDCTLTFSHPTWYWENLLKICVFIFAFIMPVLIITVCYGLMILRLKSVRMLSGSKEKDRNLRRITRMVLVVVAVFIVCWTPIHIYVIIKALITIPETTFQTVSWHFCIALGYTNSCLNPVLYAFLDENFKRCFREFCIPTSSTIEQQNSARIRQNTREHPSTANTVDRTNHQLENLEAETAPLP

In assay [1] the target is Mu-type opioid receptor (Rattus norvegicus, UniProt P33535).
Assay [2] deals with Mu-type opioid receptor (Mus musculus, UniProt P42866).

pKi: −log10 of the molar value. Several values for one entry are separate records, joined by “and”; a condition that tells them apart may be missing. Equal values may be shown once.

Consider `C[C@@H](NC(=O)[C@@H](N)Cc1ccc(O)cc1)C(=O)NCC(=O)N(C)[C@@H](Cc1ccccc1)C(=O)NCCO` [[tyrosyl-3,5-3H(N)]-D-Ala2-Mephe4-glyol5-enkephalin], for which the negative-log Ki (pKi) at Mu-type opioid receptor [1] is 9.21 and 8.83. Turning to `CC(C)C[C@H](NC(=O)[C@H](Cc1ccccc1)NC(=O)CNC(=O)CNC(=O)[C@@H](N)Cc1ccc(O)cc1)C(=O)N[C@@H](CCCNC(=N)N)C(=O)N[C@@H](CCCCN)C(=O)N[C@@H](Cc1ccc(O)cc1)C(=O)N1CCC[C@H]1C(=O)N[C@@H](CCCCN)C(=O)O` [CB0427223], the negative logarithm of the Ki (pKi) on Mu-type opioid receptor [2] is 8.44 and 8.67.

For the origin of these results see BindingDB's records for PubMed 9694962 (Memorial Sloan-Kettering Cancer Center, 1998).
